Source: patent US20160024487

Tests used:
[1] = tested on: Lys(Dnp)-ATNATGYPRIVGG-Lys(Abz)
[2] = tested on: Lys(Dnp)-ATNATFIPRIVGG-Lys(Abz)
[3] = tested on: Lys(Dnp)-ATNATX4X3PRIVGG-Lys(Abz), X4 = E, X3 = T
[4] = tested on: Lys(Dnp)-ATNATHKPRIVGG-Lys(Abz)
[5] = tested on: Lys(Dnp)-ATNATX4X3PRIVGG-Lys(Abz), X4 = N, X3 = H
[6] = tested on: Lys(Dnp)-ATNATIRPRIVGG-Lys(Abz)
[7] = tested on: Lys(Dnp)-TNATLDPRIVGG-Lys(Abz)
[8] = tested on: Lys(Dnp)-ATNATNVPRIVGG-Lys(Abz)
[9] = tested on: Lys(Dnp)-ATNATX4X3PRIVGG-Lys(Abz), X4 = T, X3 = I
[10] = tested on: Lys(Dnp)-ATNATX4X3PRIVGG-Lys(Abz), X4 = V, X3 = L
[11] = tested on: Lys(Dnp)-ATNATYRPRIVGG-Lys(Abz)
[12] = tested on: Lys(Dnp)-ATNATSDPRIVGG-Lys(Abz)
[13] = tested on: Lys(Dnp)-ATNATX4X3PRIVGG-Lys(Abz), X4 = E, X3 = F
[14] = tested on: Lys(Dnp)-ATNATX4X3PRIVGG-Lys(Abz), X4 = P, X3 = N
[15] = tested on: Lys(Dnp)-ATNATGWPRIVGG-Lys(Abz)
[16] = tested on: Lys(Dnp)-ATNATX4X3PRIVGG-Lys(Abz), X4 = M, X3 = E
[17] = tested on: Lys(Dnp)-ATNATMEPRIVGG-Lys(Abz)
[18] = tested on: Lys(Dnp)-ATNATAPPRIVGG-Lys(Abz)
[19] = tested on: Lys(Dnp)-ATNATX4X3PRIVGG-Lys(Abz), X4 = Q, X3 = V
[20] = tested on: Lys(Dnp)-ATNATWYPRIVGG-Lys(Abz)
[21] = tested on: Lys(Dnp)-ATNATSYPRIVGG-Lys(Abz)
[22] = tested on: Lys(Dnp)-ATNATNYPRIVGG-Lys(Abz)
[23] = tested on: Lys(Dnp)-ATNATMWPRIVGG-Lys(Abz)
[24] = tested on: Lys(Dnp)-ATNATAKPRIVGG-Lys(Abz)
[25] = tested on: Lys(Dnp)-ATNATDSPRIVGG-Lys(Abz)
[26] = tested on: Lys(Dnp)-ATNATX4X3PRIVGG-Lys(Abz), X4 = T, X3 = S
[27] = tested on: Lys(Dnp)-ATNATMRPRIVGG-Lys(Abz)
[28] = tested on: Lys(Dnp)-ATNATYIPRIVGG-Lys(Abz)
[29] = tested on: Lys(Dnp)-ATNATYQPRIVGG-Lys(Abz)
[30] = tested on: Lys(Dnp)-ATNATAEPRIVGG-Lys(Abz)
[31] = tested on: Lys(Dnp)-ATNATADPRIVGG-Lys(Abz)
[32] = tested on: Lys(Dnp)-ATNATEHPRIVGG-Lys(Abz)
[33] = tested on: Lys(Dnp)-ATNATQTPRIVGG-Lys(Abz)
[34] = tested on: Lys(Dnp)-ATNATFTPRIVGG-Lys(Abz)
[35] = tested on: Lys(Dnp)-ATNATQLPRIVGG-Lys(Abz)
[36] = tested on: Lys(Dnp)-ATNATLKPRIVGG-Lys(Abz)
[37] = tested on: Lys(Dnp)-ATNATNQPRIVGG-Lys(Abz)
[38] = tested on: Lys(Dnp)-ATNATWKPRIVGG-Lys(Abz)
[39] = tested on: Lys(Dnp)-ATNATX4X3PRIVGG-Lys(Abz), X4 = E, X3 = W
[40] = tested on: Lys(Dnp)-ATNATTMPRIVGG-Lys(Abz)
[41] = tested on: Lys(Dnp)-ATNATX4X3PRIVGG-Lys(Abz), X4 = Y, X3 = I
[42] = tested on: Lys(Dnp)-ATNATIPPRIVGG-Lys(Abz)
[43] = tested on: Lys(Dnp)-ATNATATPRIVGG-Lys(Abz)

Human plasma purified α-thrombin
kcat/KM [1]: 1500 M⁻¹ s⁻¹ | FIIa kcat/KM [2]: 7000 M⁻¹ s⁻¹ | Specificity Ratio (FIIa/FXa) [2]: 45 | FIIa kcat/KM [3]: 390 M⁻¹ s⁻¹ | Specificity Ratio (FIIa/FXa) [3]: 49 | kcat/KM [4]: 1200 M⁻¹ s⁻¹ | FIIa kcat/KM [5]: 660 M⁻¹ s⁻¹ | Specificity Ratio (FIIa/FXa) [5]: 43 | FIIa kcat/KM [6]: 37000 M⁻¹ s⁻¹ | Functional Selectivity (Specificity*FIIa kcat/KM) [6]: 1.8e+06 | kcat/KM [6]: 37000 M⁻¹ s⁻¹ | FIIa kcat/KM [7]: 3600 M⁻¹ s⁻¹ | Functional Selectivity (Specificity*FIIa kcat/KM) [7]: 15000 | Specificity Ratio (FIIa/FXa) [7]: 4 | kcat/KM [7]: 3600 M⁻¹ s⁻¹ | kcat/KM [8]: 550 M⁻¹ s⁻¹ | FIIa kcat/KM [9]: 1200 M⁻¹ s⁻¹ | Specificity Ratio (FIIa/FXa) [9]: 19 | FIIa kcat/KM [10]: 5000 M⁻¹ s⁻¹ | Specificity Ratio (FIIa/FXa) [10]: 15 | FIIa kcat/KM [11]: 9500 M⁻¹ s⁻¹ | Specificity Ratio (FIIa/FXa) [11]: 16 | kcat/KM [11]: 9500 M⁻¹ s⁻¹ | kcat/KM [12]: 740 M⁻¹ s⁻¹ | FIIa kcat/KM [13]: 870 M⁻¹ s⁻¹ | Specificity Ratio (FIIa/FXa) [13]: 63 | FIIa kcat/KM [14]: 6700 M⁻¹ s⁻¹ | Specificity Ratio (FIIa/FXa) [14]: 12 | FIIa kcat/KM [15]: 2900 M⁻¹ s⁻¹ | Specificity Ratio (FIIa/FXa) [15]: 36 | kcat/KM [15]: 2900 M⁻¹ s⁻¹ | FIIa kcat/KM [16]: 6800 M⁻¹ s⁻¹ | Specificity Ratio (FIIa/FXa) [16]: 11 | kcat/KM [17]: 6800 M⁻¹ s⁻¹ | kcat/KM [18]: 1500 M⁻¹ s⁻¹ | FIIa kcat/KM [19]: 5400 M⁻¹ s⁻¹ | Specificity Ratio (FIIa/FXa) [19]: 13 | FIIa kcat/KM [20]: 4300 M⁻¹ s⁻¹ | Specificity Ratio (FIIa/FXa) [20]: 73 | kcat/KM [20]: 4300 M⁻¹ s⁻¹ | FIIa kcat/KM [21]: 1100 M⁻¹ s⁻¹ | Specificity Ratio (FIIa/FXa) [21]: 82 | kcat/KM [21]: 1100 M⁻¹ s⁻¹ | kcat/KM [22]: 780 M⁻¹ s⁻¹ | FIIa kcat/KM [23]: 18000 M⁻¹ s⁻¹ | Specificity Ratio (FIIa/FXa) [23]: 28 | kcat/KM [23]: 18000 M⁻¹ s⁻¹ | FIIa kcat/KM [24]: 11000 M⁻¹ s⁻¹ | Functional Selectivity (Specificity*FIIa kcat/KM) [24]: 3.8e+06 | kcat/KM [24]: 11000 M⁻¹ s⁻¹ | FIIa kcat/KM [25]: 15 M⁻¹ s⁻¹ | Functional Selectivity (Specificity*FIIa kcat/KM) [25]: 49 | Specificity Ratio (FIIa/FXa) [25]: 3 | kcat/KM [25]: 15 M⁻¹ s⁻¹ | FIIa kcat/KM [26]: 890 M⁻¹ s⁻¹ | Specificity Ratio (FIIa/FXa) [26]: 56 | FIIa kcat/KM [27]: 35000 M⁻¹ s⁻¹ | Functional Selectivity (Specificity*FIIa kcat/KM) [27]: 2.4e+06 | kcat/KM [27]: 35000 M⁻¹ s⁻¹ | kcat/KM [28]: 2100 M⁻¹ s⁻¹ | FIIa kcat/KM [29]: 8600 M⁻¹ s⁻¹ | Functional Selectivity (Specificity*FIIa kcat/KM) [29]: 1.2e+06 | kcat/KM [29]: 8600 M⁻¹ s⁻¹ | kcat/KM [30]: 3300 M⁻¹ s⁻¹ | FIIa kcat/KM [31]: 2100 M⁻¹ s⁻¹ | Specificity Ratio (FIIa/FXa) [31]: 37 | kcat/KM [31]: 2100 M⁻¹ s⁻¹ | kcat/KM [32]: 690 M⁻¹ s⁻¹ | kcat/KM [33]: 7400 M⁻¹ s⁻¹ | FIIa kcat/KM [34]: 27000 M⁻¹ s⁻¹ | Functional Selectivity (Specificity*FIIa kcat/KM) [34]: 1.5e+07 | kcat/KM [34]: 27000 M⁻¹ s⁻¹ | kcat/KM [35]: 3500 M⁻¹ s⁻¹ | FIIa kcat/KM [36]: 32000 M⁻¹ s⁻¹ | Functional Selectivity (Specificity*FIIa kcat/KM) [36]: 1.4e+07 | kcat/KM [36]: 32000 M⁻¹ s⁻¹ | kcat/KM [37]: 740 M⁻¹ s⁻¹ | FIIa kcat/KM [38]: 13000 M⁻¹ s⁻¹ | Functional Selectivity (Specificity*FIIa kcat/KM) [38]: 4.2e+06 | kcat/KM [38]: 13000 M⁻¹ s⁻¹ | FIIa kcat/KM [39]: 390 M⁻¹ s⁻¹ | Specificity Ratio (FIIa/FXa) [39]: 48 | FIIa kcat/KM [40]: 1200 M⁻¹ s⁻¹ | Specificity Ratio (FIIa/FXa) [40]: 99 | kcat/KM [40]: 1200 M⁻¹ s⁻¹ | FIIa kcat/KM [41]: 2100 M⁻¹ s⁻¹ | Specificity Ratio (FIIa/FXa) [41]: 31 | FIIa kcat/KM [42]: 1300 M⁻¹ s⁻¹ | Specificity Ratio (FIIa/FXa) [42]: 157 | kcat/KM [42]: 1300 M⁻¹ s⁻¹ | FIIa kcat/KM [43]: 16000 M⁻¹ s⁻¹ | Functional Selectivity (Specificity*FIIa kcat/KM) [43]: 790000 | kcat/KM [43]: 16000 M⁻¹ s⁻¹
